Data taken from PubChem BioAssay AID485347 (National Center for Advancing Translational Sciences (NCATS), 2010).
Values joined by “and” are separate entries in the source; they are usually repeats but may differ in a detail not shown here. Equal entries are not always repeated. The entries are a selection whose mix differs from that of the whole data set. Some tests of the compounds listed are not included; inactive here does not mean inactive elsewhere. Active and inactive are the calls of the source.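 How the source made its calls: active means potentiation over 3 SD above the plate norm (cut at about 30% in these data); inactive means the rest.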

Chains of the proteins cited; added tags and fusions are not shown.
UniProt P14416, whole entry: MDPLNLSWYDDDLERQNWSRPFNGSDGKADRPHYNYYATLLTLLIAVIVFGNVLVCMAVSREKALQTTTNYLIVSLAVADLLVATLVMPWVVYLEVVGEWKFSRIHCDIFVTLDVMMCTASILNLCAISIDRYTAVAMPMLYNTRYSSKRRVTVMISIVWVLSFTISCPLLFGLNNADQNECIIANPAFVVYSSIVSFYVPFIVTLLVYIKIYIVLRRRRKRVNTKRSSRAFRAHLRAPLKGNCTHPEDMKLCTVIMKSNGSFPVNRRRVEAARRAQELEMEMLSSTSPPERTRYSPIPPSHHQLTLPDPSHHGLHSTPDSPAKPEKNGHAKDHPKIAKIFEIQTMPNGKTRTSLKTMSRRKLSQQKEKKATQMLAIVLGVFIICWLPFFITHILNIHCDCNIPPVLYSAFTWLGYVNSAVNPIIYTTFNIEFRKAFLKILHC

biological target: D(2) dopamine receptor (Homo sapiens) (UniProt P14416); experiment: HTS Assay for Positive Allosteric Modulators of the Human D2 Dopamine Receptor: Primary Screen for Potentiators; conditions: HEK293 T-REx D2, calcium flux, EC20 dopamine potentiation; at 10 µM; stronger effect = higher value; further: 0% is about no effect
Text: NIH Chemical Genomics Center [NCGC] NIH Molecular Libraries Probe Centers Network [MLPCN] MLPCN Grant: NS064831-01 Assay Submitter (PI): David Sibley Dopamine receptors (DARs) are involved in the etiology and/or therapy of a number of neuropsychiatric and endocrine disorders. For instance, all receptor-based antiparkinsonian drugs work via stimulating the D2 DAR subtype whereas all FDA-approved antipsychotic agents are antagonists of this receptor. […] There are three different types of allosteric modulators that we are seeking, two of which will stimulate or augment receptor signaling, allosteric agonists and potentiators, while the third, allosteric antagonists, will attenuate receptor signaling. The present primary screening assay measures compound potentiation of an EC20 dopamine response by tracking calcium flux in a […], inducible Hek293 Trex D2 cell line.
Freshly passaged cells are plated in 1536 well black, clear bottom plates at a density of 4000 cells/well in 3 ul of complete media containing 1x tetracycline inducer. After an overnight incubation at 30 C in 5% CO2, cells are loaded with 2 ul of the no wash Calcium Assay Kit (ABD Bioquest) and incubated at room temperature for 30 to 90 minutes. A 10 cycle (1 second/cycle) baseline measurement is taken and then the FDSS online 1536 pintool delivers 23 nl of compound library (as well as dopamine controls) to the plate. The plate is measured for kinetically at 1 cycle/sec for 180 seconds and is considered to be the agonist portion of the assay (eg, compounds which activate a positive calcium response during this portion are flagged as potential agonists). Following the 180 second read, 1 ul of an EC20 of dopamine is delivered by an onboard pipette head. Measurements are taken kinetically for an additional 180 seconds.

| SMILES | potentiation |
| --- | --- |
| CN(C)C1(CNC(=O)c2ccc(Br)cc2)CCCCC1 | inactive: -27.1% |
| COc1cc(C(=O)NCC2(N(C)C)CCCCC2)c([N+](=O)[O-])cc1OC | inactive: -8.65% |
| COc1ccc(Cl)cc1C(=O)NCC1(N(C)C)CCCCC1 | inactive: -25.3% |
| COc1cccc(C(=O)NCC2(N3CCCCC3)CCCCC2)c1 | inactive: -5.63% |
| COc1ccc(C(=O)NCC2(N(C)C)CCCCC2)cc1Cl | inactive: -0.156% |
| O=C(NCC1(N2CCCCC2)CCCCC1)c1cccc(Cl)c1 | inactive: -12.2% |
| COc1cccc(C(=O)NCC2(N3CCOCC3)CCCCC2)c1 | inactive: -22.1% |
| CC(C)COc1ccc(C(=O)NCC2(N(C)C)CCCCC2)cc1 | inactive: -12.4% |
| COc1ccc(Br)c(C(=O)NCC2(N3CCCCC3)CCCCC2)c1 | inactive: 9.39% |
| Cc1cccc(C(=O)NCC2(N(C)C)CCCCC2)c1 | inactive: 7.27% |
| COc1cc(C(=O)NCC2(N(C)C)CCCCC2)cc(OC)c1OC | inactive: -21.9% |
| CC(C)Oc1ccc(C(=O)NCC2(N(C)C)CCCCC2)cc1 | inactive: -13.3% and inactive: 2.39% |
| CN(C)c1cccc(C(=O)NCC2(N(C)C)CCCCC2)c1 | inactive: -14.8% |
| O=C(NCC1(N2CCCCC2)CCCCC1)c1cc([N+](=O)[O-])ccc1Cl | inactive: 4.02% |
| CN1[C@@H]2CC[C@H]1CC(OC(=O)C(O)(c1ccccc1)c1ccccc1)C2 (stereo partly drawn) | inactive: -2.68% |
| COc1cc(SC)ccc1C(=O)NCC1(N(C)C)CCCCC1 | inactive: -19.5% |
| CCN(CC)CC(C)C(C)OC(=O)C(O)(c1ccccc1)c1ccccc1 (stereo not drawn) | inactive: 3.56% |

| SMILES | potentiation |
| --- | --- |
| CN(C)C1(CNC(=O)c2cccc(Cl)c2)CCCCC1 | inactive: -27% |
| CC(C)N1C(=O)CC2(CCN(CCOC(=O)C(O)(c3ccccc3)c3ccccc3)CC2)C1=O | inactive: 6.79% |
| Cc1ccc(C(=O)NCC2(N3CCCCC3)CCCCC2)cc1 | inactive: -20.7% |
| CN(C)C1(CNC(=O)c2ccccc2F)CCCCC1 | inactive: -8.4% |
| CN(C)C1CCCC1OC(=O)C(O)(c1ccccc1)c1ccccc1 (stereo not drawn) | inactive: 7.87% |
| CN(C)c1ccc(C(=O)NCC2(N(C)C)CCCCC2)cc1 | inactive: -16.8% |
| CN(C)C1(CNC(=O)c2ccccc2[N+](=O)[O-])CCCCC1 | inactive: -6.16% |
| Cc1ccccc1C(=O)NCC1(N2CCCCC2)CCCCC1 | inactive: -3.41% |
| CCCCOc1ccccc1C(=O)NCC1(N(C)C)CCCCC1 | inactive: -2.27% |
| O=C(NCC1(N2CCCCC2)CCCCC1)c1cc(F)c(F)cc1Cl | inactive: -3.97% |
| C=CCN1CCN(CCOC(=O)C(O)(c2ccccc2)c2ccccc2)CC1 | inactive: -12.8% |
| CCOc1cccc(C(=O)NCC2(N(C)C)CCCCC2)c1 | inactive: -24.1% |
| COc1ccc(C(=O)NCC2(N(C)C)CCCCC2)cc1 | inactive: 4.44% |
| O=C(NCC1(N2CCCCC2)CCCCC1)c1cccc(Br)c1 | inactive: -9.6% |
| Cc1cc(C(=O)NCC2(N3CCCCC3)CCCCC2)ccc1[N+](=O)[O-] | inactive: 5.67% |
| CCN1CCCC(OC(=O)C2(O)c3ccccc3C=Cc3ccccc32)C1 (stereo not drawn) | inactive: -10.4% |
